This data set deals with HEK-293T. The experiment in a line: Cytotoxicity against HEK293T cells after 30 hrs by Alamar Blue assay. The format is cell-based. Particulars: human. (Alamar Blue is a resazurin reagent that responds to reducing activity.)

As a reminder, the CC50 is the concentration giving 50% cytotoxicity. Low values mean greater toxicity to the cells, high ones lower toxicity to the cells. In turn, `O=[As]c1ccccc1` (stereo unspecified) returned a CC50 of 0.32 µM.

These data come from ChEMBL document CHEMBL3611982, “Lowering the pKa of a bisimidazoline lead with halogen atoms results in improved activity and selectivity against Trypanosoma brucei in vitro” (Eur J Med Chem, 2015).
